From ChEMBL document CHEMBL4049437, “Benzoisoquinolinediones as Potent and Selective Inhibitors of BRPF2 and TAF1/TAF1L Bromodomains” (J Med Chem, 2017)

Chains of the proteins cited; added tags and fusions are not shown.
UniProt P51532, whole entry: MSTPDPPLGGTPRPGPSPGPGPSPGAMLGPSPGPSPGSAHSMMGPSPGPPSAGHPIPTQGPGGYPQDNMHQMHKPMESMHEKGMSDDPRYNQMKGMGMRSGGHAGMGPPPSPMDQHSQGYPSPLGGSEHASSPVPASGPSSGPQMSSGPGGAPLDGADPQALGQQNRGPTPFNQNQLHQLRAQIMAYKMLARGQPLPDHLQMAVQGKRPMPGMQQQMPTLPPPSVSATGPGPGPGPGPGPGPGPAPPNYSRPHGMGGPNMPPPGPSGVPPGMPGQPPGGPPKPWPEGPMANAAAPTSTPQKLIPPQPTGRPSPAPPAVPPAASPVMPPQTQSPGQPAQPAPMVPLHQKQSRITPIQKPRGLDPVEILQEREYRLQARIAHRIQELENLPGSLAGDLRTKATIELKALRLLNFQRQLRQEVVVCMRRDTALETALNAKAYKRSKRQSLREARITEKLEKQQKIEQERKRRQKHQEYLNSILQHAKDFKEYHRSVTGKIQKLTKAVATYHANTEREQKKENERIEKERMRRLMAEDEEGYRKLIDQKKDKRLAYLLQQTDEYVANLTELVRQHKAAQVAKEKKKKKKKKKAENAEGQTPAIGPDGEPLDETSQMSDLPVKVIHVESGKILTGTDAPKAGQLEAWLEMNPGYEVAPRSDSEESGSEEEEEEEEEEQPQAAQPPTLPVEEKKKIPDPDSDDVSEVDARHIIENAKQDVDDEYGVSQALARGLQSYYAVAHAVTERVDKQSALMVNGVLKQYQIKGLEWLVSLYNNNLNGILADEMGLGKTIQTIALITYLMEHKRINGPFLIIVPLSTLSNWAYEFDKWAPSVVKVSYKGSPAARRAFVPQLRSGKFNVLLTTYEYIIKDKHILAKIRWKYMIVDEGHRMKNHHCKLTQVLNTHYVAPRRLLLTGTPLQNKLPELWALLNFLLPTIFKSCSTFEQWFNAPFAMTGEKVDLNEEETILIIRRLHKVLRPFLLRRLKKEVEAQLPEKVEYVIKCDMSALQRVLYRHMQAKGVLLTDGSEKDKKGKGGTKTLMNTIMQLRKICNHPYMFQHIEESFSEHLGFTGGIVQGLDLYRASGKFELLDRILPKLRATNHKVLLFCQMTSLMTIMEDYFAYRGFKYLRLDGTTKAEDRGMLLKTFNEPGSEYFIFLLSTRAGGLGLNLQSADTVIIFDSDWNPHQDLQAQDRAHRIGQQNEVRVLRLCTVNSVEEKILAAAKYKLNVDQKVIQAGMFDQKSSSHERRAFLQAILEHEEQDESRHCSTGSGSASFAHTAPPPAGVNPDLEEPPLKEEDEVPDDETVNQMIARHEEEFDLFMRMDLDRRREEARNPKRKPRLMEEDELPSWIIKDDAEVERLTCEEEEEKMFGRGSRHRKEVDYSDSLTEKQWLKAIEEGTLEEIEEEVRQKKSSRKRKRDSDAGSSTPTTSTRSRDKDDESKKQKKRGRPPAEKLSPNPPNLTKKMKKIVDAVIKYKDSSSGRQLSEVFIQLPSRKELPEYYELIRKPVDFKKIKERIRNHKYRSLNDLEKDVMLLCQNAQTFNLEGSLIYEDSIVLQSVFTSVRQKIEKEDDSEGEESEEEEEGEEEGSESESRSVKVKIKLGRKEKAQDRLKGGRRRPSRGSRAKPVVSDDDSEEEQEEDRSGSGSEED

Biological target: SWI/SNF-related matrix-associated actin-dependent regulator of chromatin subfamily A member 4 (Homo sapiens) (UniProt P51532)
Details: 10 uM

deltaTm: 0.9 K
SMILES: Cc1cc2c(cc1N1C(=O)c3cccc4c(CCCO)ccc(c34)C1=O)n(C)c(=O)n2C
